# Key:
# [1] = tested on: hepatocytes of formalin-fixed liver tissues; conditions: rat, in vivo, po
# hepatocytes (liver) = conditions: rat, in vivo, po; cited from earlier work
compound,measurement,setting,value
"O=NN1CCCC1 [NPYR, N-Nitrosopyrrolidine]","RDLMN test result (liver micronucleus induction), formalin-fixed method",[1],positive
same,"RDLMN test result (liver micronucleus induction), collagenase digestion method",hepatocytes (liver),positive
